Measured values taken from publication PMC10716126, “Enzyme mechanistic studies of NMA1982, a protein tyrosine phosphatase and potential virulence factor in Neisseria meningitidis” (Scientific Reports, 2023).

By UniProt entry, the sequences of proteins in these tests, tags left out. Where a name states a change or a piece, a line headed by the entry shows the natural chain unless it says otherwise.
UniProt P18031: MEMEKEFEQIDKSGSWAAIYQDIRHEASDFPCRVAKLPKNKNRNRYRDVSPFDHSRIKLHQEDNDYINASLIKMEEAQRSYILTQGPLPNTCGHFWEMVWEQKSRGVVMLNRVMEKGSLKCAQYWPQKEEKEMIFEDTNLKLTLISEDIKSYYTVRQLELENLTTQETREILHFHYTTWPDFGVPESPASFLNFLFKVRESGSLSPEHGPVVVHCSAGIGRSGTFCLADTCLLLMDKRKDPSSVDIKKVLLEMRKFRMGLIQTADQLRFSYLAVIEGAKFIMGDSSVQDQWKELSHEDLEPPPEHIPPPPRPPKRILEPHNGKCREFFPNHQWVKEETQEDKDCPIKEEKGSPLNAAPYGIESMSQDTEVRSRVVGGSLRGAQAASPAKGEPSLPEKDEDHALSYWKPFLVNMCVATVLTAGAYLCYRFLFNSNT

Molecular target: T1, PTP1B (Homo sapiens, UniProt P18031)
T1 construct: gene PTPN1

Compound: Cc1cc(=O)oc2c(F)c(OP(=O)(O)O)c(F)cc12 [DiFMUP]
- Km: 4 µM
